# Experimental data from PubChem BioAssay AID1159614 (National Center for Advancing Translational Sciences (NCATS), 2016).
# Protein sequences, listed by entry. Tags and fused reporters are not part of them.
# UniProt P54803, whole entry G286D: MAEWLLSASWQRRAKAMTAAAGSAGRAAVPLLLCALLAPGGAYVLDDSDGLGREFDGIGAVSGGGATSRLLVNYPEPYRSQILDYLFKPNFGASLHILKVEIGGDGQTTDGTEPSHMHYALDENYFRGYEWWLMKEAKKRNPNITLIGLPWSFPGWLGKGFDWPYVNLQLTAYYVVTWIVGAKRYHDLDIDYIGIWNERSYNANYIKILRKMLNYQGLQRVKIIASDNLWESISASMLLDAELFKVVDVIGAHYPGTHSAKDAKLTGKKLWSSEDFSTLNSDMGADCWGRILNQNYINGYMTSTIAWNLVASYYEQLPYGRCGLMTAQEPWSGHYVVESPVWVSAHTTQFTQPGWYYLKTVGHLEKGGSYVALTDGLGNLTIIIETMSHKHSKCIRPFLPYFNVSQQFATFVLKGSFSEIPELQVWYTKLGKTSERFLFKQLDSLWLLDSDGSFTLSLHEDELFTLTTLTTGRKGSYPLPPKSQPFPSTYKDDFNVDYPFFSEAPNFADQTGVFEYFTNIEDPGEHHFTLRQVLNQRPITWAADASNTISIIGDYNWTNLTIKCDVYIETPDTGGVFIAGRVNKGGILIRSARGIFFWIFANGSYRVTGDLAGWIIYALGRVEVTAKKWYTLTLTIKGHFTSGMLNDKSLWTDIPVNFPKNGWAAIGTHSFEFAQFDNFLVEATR
# This is a selection; strong and weak results do not stand in their true shares. Some tests of the compounds listed are not included; inactive here does not mean inactive elsewhere. The source made the active and inactive calls. The call rests on the fitted dose curve; in most records, active means well fitted activation curve with a large enough effect; inconclusive means small, poorly fitted or top-dose-only effect; inactive means no such curve, though single readings can be large or run the other way.
# Biological target: Galactocerebrosidase (Homo sapiens) (UniProt P54803)
# Test: A Novel Cell-Based Assay to Identify Small Molecules for B -Galactocerebrosidase; further: 0% is about no effect; nearly all actives have a fitted effect of over 65% in size
# Conditions: 145M-Twi-hGALC-G270D cells (Twitcher mouse brain line with human GALC G270D), HMU-beta-Gal fluorescence, 48 h; at 57.5 µM (top of the series)
row,Structure (SMILES),activation
1,COc1ccc(C(=O)NCC2(N(C)C)CCCCC2)cc1Cl,inactive: -5.55%
2,COc1cccc(C(=O)NCC2(N3CCOCC3)CCCCC2)c1,inactive: -4.93%
3,CC(C)COc1ccc(C(=O)NCC2(N(C)C)CCCCC2)cc1,inactive: 21.4%
4,Cc1cccc(C(=O)NCC2(N(C)C)CCCCC2)c1,inactive: -18.7%
5,COc1cc(C(=O)NCC2(N(C)C)CCCCC2)cc(OC)c1OC,inactive: -12.4%
6,CC(C)Oc1ccc(C(=O)NCC2(N(C)C)CCCCC2)cc1,inactive: -9.2%
7,CN(C)C1(CNC(=O)c2cccc(Cl)c2)CCCCC1,inactive: -9.79%
8,CN(C)C1(CNC(=O)c2ccccc2F)CCCCC1,inactive: -15.6%
9,CN(C)C1(CNC(=O)c2ccccc2[N+](=O)[O-])CCCCC1,inactive: -7%
10,CCCCOc1ccccc1C(=O)NCC1(N(C)C)CCCCC1,inactive: 18.1%
11,CCOc1cccc(C(=O)NCC2(N(C)C)CCCCC2)c1,inactive: -7.67%
